# Source: patent US8501446B2 (Vertex Pharmaceuticals Incorporated, priority 2004, dated 2013)
# By UniProt entry, the sequences of proteins in these tests, tags left out. Residues count along the entry.
# UniProt Q13464, 6-553 limits assumed: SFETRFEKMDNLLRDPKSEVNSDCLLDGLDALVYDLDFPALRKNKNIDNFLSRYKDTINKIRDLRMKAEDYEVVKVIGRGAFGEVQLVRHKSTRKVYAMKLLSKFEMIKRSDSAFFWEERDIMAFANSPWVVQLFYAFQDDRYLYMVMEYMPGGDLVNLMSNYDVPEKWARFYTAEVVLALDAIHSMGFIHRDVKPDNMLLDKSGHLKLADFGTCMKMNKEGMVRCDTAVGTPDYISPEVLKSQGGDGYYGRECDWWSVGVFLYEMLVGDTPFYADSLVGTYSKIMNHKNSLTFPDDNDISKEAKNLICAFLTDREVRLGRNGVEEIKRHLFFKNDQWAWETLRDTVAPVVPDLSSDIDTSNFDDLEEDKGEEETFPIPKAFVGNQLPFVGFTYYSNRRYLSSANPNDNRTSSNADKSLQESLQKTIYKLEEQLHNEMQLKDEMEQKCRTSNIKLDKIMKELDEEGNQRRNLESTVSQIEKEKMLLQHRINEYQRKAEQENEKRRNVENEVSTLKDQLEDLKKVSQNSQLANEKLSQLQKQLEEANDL
# UniProt Q13464, whole entry: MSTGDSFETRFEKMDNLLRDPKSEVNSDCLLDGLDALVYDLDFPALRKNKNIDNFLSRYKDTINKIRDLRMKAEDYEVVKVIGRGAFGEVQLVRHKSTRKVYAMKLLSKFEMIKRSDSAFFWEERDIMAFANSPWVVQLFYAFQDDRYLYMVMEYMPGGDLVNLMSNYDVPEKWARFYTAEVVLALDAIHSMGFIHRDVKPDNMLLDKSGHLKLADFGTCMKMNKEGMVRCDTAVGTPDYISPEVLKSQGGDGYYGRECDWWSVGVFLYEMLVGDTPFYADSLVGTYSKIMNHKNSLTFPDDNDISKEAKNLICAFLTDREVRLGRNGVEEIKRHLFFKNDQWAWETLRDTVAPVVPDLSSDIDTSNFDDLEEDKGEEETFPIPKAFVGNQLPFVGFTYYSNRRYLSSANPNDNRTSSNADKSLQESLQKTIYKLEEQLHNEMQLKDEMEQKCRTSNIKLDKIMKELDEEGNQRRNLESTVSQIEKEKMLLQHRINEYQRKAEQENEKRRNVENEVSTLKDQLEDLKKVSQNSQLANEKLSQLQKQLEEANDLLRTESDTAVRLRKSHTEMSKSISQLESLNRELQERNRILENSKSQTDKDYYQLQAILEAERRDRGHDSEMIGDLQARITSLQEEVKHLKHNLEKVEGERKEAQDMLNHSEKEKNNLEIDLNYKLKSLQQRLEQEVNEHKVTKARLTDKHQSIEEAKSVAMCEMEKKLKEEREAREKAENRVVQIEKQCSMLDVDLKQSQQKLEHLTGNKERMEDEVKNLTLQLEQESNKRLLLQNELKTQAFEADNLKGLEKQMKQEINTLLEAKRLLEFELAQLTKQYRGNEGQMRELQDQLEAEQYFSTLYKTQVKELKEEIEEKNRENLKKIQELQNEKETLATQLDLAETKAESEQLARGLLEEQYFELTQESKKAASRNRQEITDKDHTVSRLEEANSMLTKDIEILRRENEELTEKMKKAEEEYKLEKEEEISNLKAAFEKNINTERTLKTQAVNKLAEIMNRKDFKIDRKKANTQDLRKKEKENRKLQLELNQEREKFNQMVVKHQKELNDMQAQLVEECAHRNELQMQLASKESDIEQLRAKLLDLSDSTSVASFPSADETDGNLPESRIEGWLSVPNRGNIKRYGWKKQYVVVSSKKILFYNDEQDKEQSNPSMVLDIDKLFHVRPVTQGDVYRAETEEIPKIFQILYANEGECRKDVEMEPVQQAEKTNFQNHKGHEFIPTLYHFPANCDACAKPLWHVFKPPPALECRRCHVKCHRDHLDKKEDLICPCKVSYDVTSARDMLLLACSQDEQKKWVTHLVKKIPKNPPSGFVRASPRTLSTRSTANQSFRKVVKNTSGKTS
# UniProt P52333, whole entry: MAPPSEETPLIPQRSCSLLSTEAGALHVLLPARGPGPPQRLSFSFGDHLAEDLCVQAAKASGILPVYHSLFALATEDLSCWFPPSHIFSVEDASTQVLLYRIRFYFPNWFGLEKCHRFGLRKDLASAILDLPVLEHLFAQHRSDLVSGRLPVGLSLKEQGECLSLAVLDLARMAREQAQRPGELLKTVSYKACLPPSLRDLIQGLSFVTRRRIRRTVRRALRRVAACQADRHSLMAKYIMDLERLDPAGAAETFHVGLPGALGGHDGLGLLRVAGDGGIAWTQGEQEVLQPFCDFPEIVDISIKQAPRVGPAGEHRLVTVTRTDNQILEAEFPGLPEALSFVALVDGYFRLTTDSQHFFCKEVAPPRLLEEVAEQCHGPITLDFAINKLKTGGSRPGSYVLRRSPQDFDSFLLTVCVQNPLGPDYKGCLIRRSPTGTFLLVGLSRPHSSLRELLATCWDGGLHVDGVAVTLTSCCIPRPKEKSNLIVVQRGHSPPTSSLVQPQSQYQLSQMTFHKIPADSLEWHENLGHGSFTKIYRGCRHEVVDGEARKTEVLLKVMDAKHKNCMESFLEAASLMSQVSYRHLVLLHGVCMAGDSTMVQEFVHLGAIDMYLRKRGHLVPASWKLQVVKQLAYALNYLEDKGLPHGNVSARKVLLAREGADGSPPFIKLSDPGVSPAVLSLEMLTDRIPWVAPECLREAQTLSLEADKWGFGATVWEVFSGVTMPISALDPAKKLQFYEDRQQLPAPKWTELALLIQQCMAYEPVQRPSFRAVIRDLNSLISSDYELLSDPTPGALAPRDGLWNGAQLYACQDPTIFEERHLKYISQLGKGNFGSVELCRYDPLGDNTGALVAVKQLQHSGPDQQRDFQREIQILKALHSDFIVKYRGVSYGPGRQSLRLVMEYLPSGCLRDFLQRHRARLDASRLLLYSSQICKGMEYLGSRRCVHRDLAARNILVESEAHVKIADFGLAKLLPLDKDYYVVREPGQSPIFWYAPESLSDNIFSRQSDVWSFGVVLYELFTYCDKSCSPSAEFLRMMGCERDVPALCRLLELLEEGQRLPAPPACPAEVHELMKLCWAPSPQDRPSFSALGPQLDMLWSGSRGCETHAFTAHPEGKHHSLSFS
# UniProt O60674, whole entry: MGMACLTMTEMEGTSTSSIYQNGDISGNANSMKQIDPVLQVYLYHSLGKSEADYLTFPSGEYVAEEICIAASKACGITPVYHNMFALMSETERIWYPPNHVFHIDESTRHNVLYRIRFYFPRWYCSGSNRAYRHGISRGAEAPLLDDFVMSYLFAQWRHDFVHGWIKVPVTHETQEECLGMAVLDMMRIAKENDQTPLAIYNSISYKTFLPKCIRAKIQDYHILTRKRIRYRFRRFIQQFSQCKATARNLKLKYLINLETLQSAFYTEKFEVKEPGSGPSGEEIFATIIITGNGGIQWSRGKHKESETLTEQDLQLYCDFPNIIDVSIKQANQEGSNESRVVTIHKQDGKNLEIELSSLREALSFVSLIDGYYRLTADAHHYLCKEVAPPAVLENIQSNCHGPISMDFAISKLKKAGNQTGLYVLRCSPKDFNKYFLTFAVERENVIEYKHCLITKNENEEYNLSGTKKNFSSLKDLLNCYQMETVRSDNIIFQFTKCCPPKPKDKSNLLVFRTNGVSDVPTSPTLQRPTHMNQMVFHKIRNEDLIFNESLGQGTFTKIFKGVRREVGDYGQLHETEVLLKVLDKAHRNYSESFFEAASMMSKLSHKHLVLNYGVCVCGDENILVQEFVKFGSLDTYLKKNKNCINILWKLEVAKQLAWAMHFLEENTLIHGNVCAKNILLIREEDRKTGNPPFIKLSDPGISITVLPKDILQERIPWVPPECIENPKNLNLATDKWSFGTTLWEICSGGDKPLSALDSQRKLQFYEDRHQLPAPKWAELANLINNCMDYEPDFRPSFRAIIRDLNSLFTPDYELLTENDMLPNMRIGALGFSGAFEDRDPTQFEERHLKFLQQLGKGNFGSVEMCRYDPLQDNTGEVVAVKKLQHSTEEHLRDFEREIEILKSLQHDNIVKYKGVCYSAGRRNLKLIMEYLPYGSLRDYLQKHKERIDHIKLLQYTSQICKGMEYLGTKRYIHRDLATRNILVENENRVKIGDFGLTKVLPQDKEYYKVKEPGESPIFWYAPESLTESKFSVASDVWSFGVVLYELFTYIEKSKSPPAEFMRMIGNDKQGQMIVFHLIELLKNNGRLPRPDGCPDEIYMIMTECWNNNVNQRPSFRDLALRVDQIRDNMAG
# UniProt O14965, whole entry: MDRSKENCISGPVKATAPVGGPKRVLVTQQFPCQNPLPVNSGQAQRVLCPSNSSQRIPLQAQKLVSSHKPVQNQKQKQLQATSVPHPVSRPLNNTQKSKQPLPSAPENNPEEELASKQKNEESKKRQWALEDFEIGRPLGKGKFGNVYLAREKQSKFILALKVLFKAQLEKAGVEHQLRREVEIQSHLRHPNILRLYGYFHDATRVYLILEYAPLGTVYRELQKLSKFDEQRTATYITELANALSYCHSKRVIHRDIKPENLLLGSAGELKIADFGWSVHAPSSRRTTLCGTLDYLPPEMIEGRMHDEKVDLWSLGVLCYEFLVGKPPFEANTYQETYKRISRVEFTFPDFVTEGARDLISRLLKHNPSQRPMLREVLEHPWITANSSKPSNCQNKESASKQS
# pKi: −log10 of the molar value.
# How the values were obtained:
# Assay type in all cases: biochemical
# ROCK I (AA 6-553) = ROCK I (AA 6-553) (Homo sapiens, UniProt Q13464); assay: ROCK inhibition assay, standard coupled enzyme system ("Enzyme"); conditions: read-out: ROCK Enzyme Ki; enzyme-linked assay
# Protocol: Compounds were screened for their ability to inhibit ROCK I (AA 6-553) activity using a standard coupled enzyme system (Fox et al. (1998) Protein Sci. 7, 2249). Reactions were carried out in a solution containing 100 mM HEPES (pH 7.5), 10 mM MgCl2, 25 mM NaCl, 2 mM DTT and 1.5% DMSO. Final substrate concentrations in the assay were 45 μM ATP (Sigma Chemicals, St Louis, Mo.) and 200 μM peptide (American Peptide, Sunnyvale, Calif.). Reactions were carried out at 30° C. and 45 nM ROCK L. Final concentrations of the components of the coupled enzyme system were 2.5 mM phosphoenolpyruvate, 350 μM NADH, 30 μg/ml pyruvate kinase and 10 μg/ml lactate dehydrogenase.
# JAK3 = JAK3 (Homo sapiens, UniProt P52333); assay: JAK3 inhibition assay (standard radioactive enzyme assay); conditions: read-out: JAK3 Ki; average Ki if more than one value determined
# Protocol: (§1) Compounds were screened for their ability to inhibit JAK3 using a standard radioactive enzyme assay. 1.5 μL/well of a DMSO stock containing serial dilutions of a compound of the present invention (concentrations ranging from 667 μM to 46 nM) was placed in a 96 well polycarbonate plate. 50 μL per well of kinase buffer (100 mM HEPES (pH 7.4), 10 mM MgCl2, 25 mM NaCl, 1 mM DTT, and 0.01% bovine serum albumin (BSA)) containing 2 μM poly(Glu)4Tyr and 10 μM ATP was also added to the plate. To initiate the reaction, 50 μL kinase buffer containing 2 nM JAK3 enzyme was added. Final ATP concentration was 5 μM [γ-^33P] ATP (200 μCi ^33P ATP/μmol ATP (Perkin Elmer, Cambridge, Mass.). After 20 minutes at room temperature (25° C.), the reaction was stopped by adding 50 μL 20% trichloroacetic acid (TCA)/0.4 mM ATP to each well. The entire content of each well was then transferred to a 96 well glass fiber filter plate using a TomTek Cell Harvester. After washing, 60 μL scintillation fluid was added and ^33P incorporation detected using a Perkin Elmer TopCount. After removing mean background values for all of the data points the data was fit using Prism software to obtain a Ki(app). Inhibition of JAK2 was measured as above except that final poly(Glu)4Tyr concentration was 15 μM and final ATP concentration was 12 μM.
# JAK2 = JAK2 (Homo sapiens, UniProt O60674); assay: JAK2 inhibition assay (radioactive enzyme assay, as for JAK3); conditions: read-out: JAK2 Ki; average Ki if more than one value determined
# Protocol: as §1
# ROCK = ROCK (Homo sapiens, UniProt Q13464); assay: ROCK inhibition assay, standard radioactive enzyme assay ("33P"); conditions: read-out: ROCK 33P Ki
# Protocol: Some compounds were screened for their ability to inhibit ROCK using a standard radioactive enzyme assay. Assays were carried out in a solution containing 100 mM HEPES (pH 7.5), 10 mM MgCl2, 25 mM NaCl, 2 mM DTT, and 1.5% DMSO. Final substrate concentrations in the assay were 13 μM [γ-^33P] ATP (25 mCi ^33P ATP/mmol ATP, Perkin Elmer, Cambridge, Mass./Sigma Chemicals, St Louis, Mo.) and 27 μM Myelin Basic Protein (MBP). Final enzyme concentration in the assay was 5 nM ROCK. Assays were carried out at room temperature. 1.5 μl of DMSO stock containing serial dilutions of the compound of the present invention (concentrations ranging from 10 μM to 2.6 nM) was placed in a 96 well plate. 50 μl of Solution 1 (100 mM HEPES (pH 7.5), 10 mM MgCl2, […]) was added to the plate. The reaction was initiated by addition of 50 μl of Solution 2 (100 mM HEPES (pH 7.5), 10 mM MgCl2, 4 mM DTT, […] and 10 nM ROCK). After 2 hours the reaction was quenched with 50 μL of 30% trichloroacetic acid (TCA, Fisher) containing 9 mM ATP. Transfer of 140 μL of the quenched reaction to a glass fiber filter plate (Corning, Cat. No. 3511) was followed by washing 3 times with 5% TCA. 50 μL of Optima Gold scintillation fluid (Perkin Elmer) was added and the plates were counted on a Top Count (Perkin Elmer). […]
# [1] = target: full length Aurora-A (AA 1-403) (Homo sapiens, UniProt O14965); assay: Aurora-A inhibition assay, standard coupled enzyme system; conditions: read-out: Aurora A Ki; average Ki if more than one value determined
# Protocol: Compounds were screened for their ability to inhibit full length Aurora-A (AA 1-403) activity using a standard coupled enzyme system (Fox et al., Protein Sci. 7, pp. 2249 (1998)). Reactions were carried out in a solution containing 100 mM HEPES (pH 7.5), 10 mM MgCl2, 25 mM NaCl, 300 μM NADH, 1 mM DTT and 3% DMSO. Final substrate concentrations in the assay were 200 μM ATP (Sigma Chemicals, St Louis, Mo.) and 800 μM peptide (LRRASLG, American Peptide, Sunnyvale, Calif.). Reactions were carried out at 30° C. and 35 nM Aurora-A. Final concentrations of the components of the coupled enzyme system were 2.5 mM phosphoenolpyruvate, 200 μM NADH, 60 μg/ml pyruvate kinase and 20 μg/ml lactate dehydrogenase.
# An assay stock buffer solution was prepared containing all of the reagents listed above with the exception of ATP and the test compound of interest. The assay stock buffer solution (60 μl) was incubated in a 96 well plate with 2 μl of the test compound of interest at final concentrations spanning 0.002 μM to 30 μM at 30° C. for 10 min. […] Rates of reaction were obtained using a Molecular Devices Spectramax plate reader (Sunnyvale, Calif.) over 10 min at 30° C. The Ki values were determined from the rate data as a function of inhibitor concentration using computerized nonlinear regression (Prism 3.0, Graphpad Software, San Diego, Calif.). […]
pKi (ROCK I (AA 6-553)),pKi (JAK3),pKi (JAK2),pKi (ROCK),pKi [1],SMILES
5.30 to 6.30,> 6.30,> 6.30,5.30 to 6.30,> 6.30,CC(=O)N1[C@H](C)CN(c2nc(-c3c[nH]c4ncc(Cl)cc34)ccc2C(=O)O)C[C@@H]1C
5.30 to 6.30,> 6.30,5.30 to 6.30,,,Clc1cnc2[nH]cc(-c3cccc(OCc4ccccc4)c3)c2c1
